The assay concerns the target PI3Kα H1047R (T47D cells) (Homo sapiens, UniProt P42336, H1047R). The experiment in a line: PI3Kα cellular assay: pAKT HTRF in T47D cells after EGF stimulation. It is filed as cell-based. To be noted: for IC50: read-out: T47D pAKT S473 HTRF IC50 (H1047R): Average IC50, T47D cells (PI3Kα H1047R), pAKT S473 HTRF. On the technique in general: TR-FRET usually uses a lanthanide donor and a delayed reading to cut background.

By UniProt entry, the sequences of proteins in these tests, tags left out.
UniProt P42336, whole entry H1047R: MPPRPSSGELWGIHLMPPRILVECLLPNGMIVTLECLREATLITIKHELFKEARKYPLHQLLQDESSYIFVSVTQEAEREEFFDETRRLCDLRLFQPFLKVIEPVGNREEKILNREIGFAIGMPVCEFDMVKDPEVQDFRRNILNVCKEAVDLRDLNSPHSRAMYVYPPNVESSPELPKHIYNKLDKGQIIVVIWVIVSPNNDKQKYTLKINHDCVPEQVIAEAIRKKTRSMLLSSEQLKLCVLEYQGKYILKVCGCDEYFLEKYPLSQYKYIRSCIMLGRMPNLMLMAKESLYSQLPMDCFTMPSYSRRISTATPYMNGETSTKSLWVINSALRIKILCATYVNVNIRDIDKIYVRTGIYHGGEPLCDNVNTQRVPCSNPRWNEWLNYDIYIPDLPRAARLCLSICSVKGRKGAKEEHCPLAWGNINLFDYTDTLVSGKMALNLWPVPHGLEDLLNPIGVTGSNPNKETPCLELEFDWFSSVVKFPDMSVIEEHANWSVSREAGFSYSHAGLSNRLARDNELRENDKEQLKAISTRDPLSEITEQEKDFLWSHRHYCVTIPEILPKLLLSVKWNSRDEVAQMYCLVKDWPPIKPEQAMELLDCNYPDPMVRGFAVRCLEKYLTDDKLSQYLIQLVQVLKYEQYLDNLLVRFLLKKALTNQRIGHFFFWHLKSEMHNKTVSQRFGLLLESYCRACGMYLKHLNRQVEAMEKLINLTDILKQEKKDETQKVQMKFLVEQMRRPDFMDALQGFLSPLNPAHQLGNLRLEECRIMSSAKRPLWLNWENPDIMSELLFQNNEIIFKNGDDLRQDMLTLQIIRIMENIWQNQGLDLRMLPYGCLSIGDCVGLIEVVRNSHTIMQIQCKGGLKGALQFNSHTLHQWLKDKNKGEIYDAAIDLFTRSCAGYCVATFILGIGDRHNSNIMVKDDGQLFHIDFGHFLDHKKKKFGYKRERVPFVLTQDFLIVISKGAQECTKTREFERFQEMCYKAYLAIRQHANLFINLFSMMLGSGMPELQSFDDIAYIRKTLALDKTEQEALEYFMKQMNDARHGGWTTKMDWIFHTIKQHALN
UniProt P27986, whole entry partner: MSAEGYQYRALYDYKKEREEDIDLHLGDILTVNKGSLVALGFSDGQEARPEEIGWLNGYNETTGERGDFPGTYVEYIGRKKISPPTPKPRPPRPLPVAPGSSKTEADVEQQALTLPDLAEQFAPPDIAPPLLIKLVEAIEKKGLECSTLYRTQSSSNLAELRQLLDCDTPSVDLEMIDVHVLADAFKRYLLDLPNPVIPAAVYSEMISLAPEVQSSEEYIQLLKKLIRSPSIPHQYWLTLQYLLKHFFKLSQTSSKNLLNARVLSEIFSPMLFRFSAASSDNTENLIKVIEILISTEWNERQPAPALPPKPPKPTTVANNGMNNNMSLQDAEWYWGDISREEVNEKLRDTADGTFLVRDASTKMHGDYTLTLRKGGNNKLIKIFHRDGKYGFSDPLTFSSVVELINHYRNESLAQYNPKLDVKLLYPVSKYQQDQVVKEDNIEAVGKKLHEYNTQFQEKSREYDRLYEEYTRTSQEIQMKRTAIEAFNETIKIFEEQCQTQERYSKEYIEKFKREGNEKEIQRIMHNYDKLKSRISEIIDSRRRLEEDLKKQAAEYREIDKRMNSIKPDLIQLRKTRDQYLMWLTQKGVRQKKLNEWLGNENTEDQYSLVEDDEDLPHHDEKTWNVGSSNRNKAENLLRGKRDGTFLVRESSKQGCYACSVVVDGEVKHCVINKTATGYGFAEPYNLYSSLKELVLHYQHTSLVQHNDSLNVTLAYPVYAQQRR

[1] abbreviates: selectivity of T47D (H1047R) over SKBR3 (WT) pAKT IC50.
Setting [2] is: 1 hr compound, 20 ng/ml EGF 10 min.
[3] abbreviates: selectivity T47D (H1047R) over SKBR3 (WT), pAKT HTRF.

This note sets out measurements from patent US20260132129A1.

As usually defined, the IC50 is the concentration that inhibits the measured activity by half.

Molecules are shown by their SMILES. Like-named read-outs stand apart in the source and are kept apart here.

As for `C=CC(=O)Nc1ccc(C(=O)O)c(N[C@@H](C)c2cc(C)cn3c(=O)cc(N4Cc5ccccc5C4)nc23)c1`, for the setting “EGF stimulation”, the half-maximal inhibitory concentration (IC50) was greater than 2000 nM. In addition, the “T47D pAKT S473 HTRF IC50 (H1047R): T47D (H1047R) selectivity over SKBR3 (WT)” value under setting [1] was “C (C denotes ≤5-fold)”.

In the case of `Cc1cc([C@H](C)Nc2ccccc2S(N)(=O)=O)c2nc(N3Cc4ccccc4C3)c(C3CC3)c(=O)n2c1`, the IC50 (EGF stimulation) was greater than 2000 nM. In addition, under setting [1], the “T47D pAKT S473 HTRF IC50 (H1047R): T47D (H1047R) selectivity over SKBR3 (WT)” value is “C (C denotes ≤5-fold)”.

As for `Cc1cc([C@@H](C)Nc2ccccc2C(=O)O)c2nc(N3Cc4ccccc4C3)cc(=O)n2c1` [392], the IC50 under setting [2] was greater than 2000 nM. Further, the “T47D pAKT S473 HTRF IC50 (H1047R): T47D (H1047R) selectivity over SKBR3 (WT)” value under setting [3] is given as “C (C denotes ≤5-fold)”.

Regarding `Cc1cc(C(C)Nc2ccccc2C(C)(O)C(F)(F)F)c2nc(-c3ccc(F)cc3)c(C)c(=O)n2c1` (stereo not shown), the IC50 (EGF stimulation) is 500 to 2000 nM.

For the molecule `Cc1cc([C@@H](C)Nc2ccccc2C(=O)O)c2nc(-c3ccnc(C)c3)c(C)c(=O)n2c1`, the IC50 (EGF stimulation) was less than 100 nM. Also, the “T47D pAKT S473 HTRF IC50 (H1047R): T47D (H1047R) selectivity over SKBR3 (WT)” value under setting [3] is “A (A denotes >20-fold)”.

As to `Cc1cc([C@H](C)Nc2ccc(F)cc2C(=O)O)c2nc(-c3ccnc(C4CC4)c3)c(C)c(=O)n2c1`, for the setting “EGF stimulation”, the IC50 was less than 100 nM. Moreover, the “T47D pAKT S473 HTRF IC50 (H1047R): T47D (H1047R) selectivity over SKBR3 (WT)” value under setting [3] is listed as “A (A denotes >20-fold)”.

Consider `Cc1cc(C(C)Nc2ccccc2S(N)(=O)=O)c2nc(-c3ccnc(C4CC4)c3)c(C)c(=O)n2c1` (stereo not shown) [Compound 1096], for which, for the setting “EGF stimulation”, the IC50 was 100 to 500 nM. Under setting [3], the “T47D pAKT S473 HTRF IC50 (H1047R): T47D (H1047R) selectivity over SKBR3 (WT)” value is “A (A denotes >20-fold)”.

Consider `Cc1cc([C@@H](C)Nc2ccccc2C(=O)O)c2nc(-c3ccc(C(C)(F)F)cc3)cc(=O)n2c1`, for which, under setting [2], the IC50 fell in the range of 100 to 500 nM. Under setting [3], the “T47D pAKT S473 HTRF IC50 (H1047R): T47D (H1047R) selectivity over SKBR3 (WT)” value is recorded as “A (A denotes >20-fold)”.

Consider `Cc1cc(C(C)Nc2ccc(Cl)nc2C(=O)O)c2nc(-c3cccc(F)c3)c(C)c(=O)n2c1` (stereo not shown), for which the IC50 (EGF stimulation) was in the range of 100 to 500 nM. Moreover, the “T47D pAKT S473 HTRF IC50 (H1047R): T47D (H1047R) selectivity over SKBR3 (WT)” value under setting [3] was “A (A denotes >20-fold)”.

Turning to `C=CC(=O)Nc1cc(C(C)Nc2ccccc2C(=O)O)c2nc(-c3ccc(F)cc3)cc(=O)n2c1` (stereo not shown), for the setting “EGF stimulation”, the IC50 is greater than 2000 nM. Further, under setting [1], the “T47D pAKT S473 HTRF IC50 (H1047R): T47D (H1047R) selectivity over SKBR3 (WT)” value is on record as “C (C denotes ≤5-fold)”.

With `Cc1cc([C@H](C)Nc2ccc(C(F)(F)F)nc2C(=O)O)c2nc(-c3cccc(F)c3)c(C)c(=O)n2c1`, for the setting “EGF stimulation”, the IC50 was greater than 2000 nM. Besides, the “T47D pAKT S473 HTRF IC50 (H1047R): T47D (H1047R) selectivity over SKBR3 (WT)” value under setting [3] is “C (C denotes ≤5-fold)”.

`Cc1cc([C@@H](C)Nc2ccccc2S(N)(=O)=O)c2nc(-c3cnc4c(c3)c(C)nn4C)c(C)c(=O)n2c1`: the IC50 (EGF stimulation) lay within 100 to 500 nM. Besides, the “T47D pAKT S473 HTRF IC50 (H1047R): T47D (H1047R) selectivity over SKBR3 (WT)” value under setting [1] is listed as “A (A denotes >20-fold)”.

On to `Cc1cc(C(C)Nc2cc3cn[nH]c3cc2C(=O)O)c2nc(N3CCOCC3)cc(=O)n2c1` (stereo not shown), for which, where the note is “EGF stimulation”, the IC50 is greater than 2000 nM. Also, the “T47D pAKT S473 HTRF IC50 (H1047R): T47D (H1047R) selectivity over SKBR3 (WT)” value under setting [1] is reported as “C (C denotes ≤5-fold)”.

Consider `Cc1cc(C(C)Nc2ccccc2C(=O)O)c2nc(N3CCC(S(C)(=O)=O)CC3)cc(=O)n2c1` (stereo not shown), for which the IC50 under setting [2] is greater than 2000 nM. The “T47D pAKT S473 HTRF IC50 (H1047R): T47D (H1047R) selectivity over SKBR3 (WT)” value under setting [3] was “C (C denotes ≤5-fold)”.

Consider `Cc1cc([C@H](C)Nc2ccccc2C(=O)O)c2nc(N3Cc4ccccc4[C@@H]3C)cc(=O)n2c1`, for which the IC50 (EGF stimulation) was less than 100 nM. The “T47D pAKT S473 HTRF IC50 (H1047R): T47D (H1047R) selectivity over SKBR3 (WT)” value under setting [1] is listed as “A (A denotes >20-fold)”.

As to `Cc1cc([C@@H](C)Nc2ccccc2C(=O)O)c2nc(-c3c(C)ccc4[nH]ncc34)cc(=O)n2c1`, under setting [2], the IC50 is greater than 2000 nM. For the same molecule, the “T47D pAKT S473 HTRF IC50 (H1047R): T47D (H1047R) selectivity over SKBR3 (WT)” value under setting [3] was “C (C denotes ≤5-fold)”.

Turning to `Cc1cc(C(C)Nc2ccccc2S(N)(=O)=O)c2nc(-c3ccc4c(c3)CC(F)(F)C4)c(C)c(=O)n2c1` (stereo not shown), the IC50 (EGF stimulation) lay within 100 to 500 nM. Under setting [1], the “T47D pAKT S473 HTRF IC50 (H1047R): T47D (H1047R) selectivity over SKBR3 (WT)” value is on record as “A (A denotes >20-fold)”.

Regarding `Cc1cc([C@H](C)Nc2ccccc2C(N)=O)c2nc(-c3ccc4c(c3)c(C)nn4C3CC3)c(C)c(=O)n2c1`, under “EGF stimulation”, the IC50 is 100 to 500 nM. Moreover, the “T47D pAKT S473 HTRF IC50 (H1047R): T47D (H1047R) selectivity over SKBR3 (WT)” value under setting [1] was “A (A denotes >20-fold)”.

Regarding `Cc1cc([C@H](C)Nc2ccccc2S(N)(=O)=O)c2nc(N3Cc4ccccc4[C@@H]3C)c(C)c(=O)n2c1`, the IC50 (EGF stimulation) fell in the range of 100 to 500 nM. Also, the “T47D pAKT S473 HTRF IC50 (H1047R): T47D (H1047R) selectivity over SKBR3 (WT)” value under setting [3] is recorded as “A (A denotes >20-fold)”.
